Literature values, collected in patent publication US4231925A, “Pentapeptides with analgesic activity on peripheral administration” (American Home Products Corporation, priority 1979, dated 1980).

Assays:
[1] = human blood plasma; cited from earlier work
[2] = rat blood plasma; cited from earlier work

## H--Tyr--Gly--Gly--Phe--Leu--OH [Leu-enkephalin]
[1]
  breakdown in blood plasma: broken down
[2]
  breakdown in blood plasma: broken down

Where two headings read alike, the source gives them in different places.
